scFv variants of Ab-14 (heavy chain) against a SARS-CoV-2 spike peptide

From the AlphaSeq antibody data of Li et al. 2023 (doi:10.1038/s41467-023-39022-2), copy in the FLAb collection.

Target: peptide PDVDLGDISGINAS, taken from heptad repeat 2 (HR2) of SARS-CoV-2 spike.

Each scFv is VH, a 15-residue (Gly4Ser)3 linker, VL, as in the parent Ab-14, and differs from it in the CDRs of the heavy chain only.
VH: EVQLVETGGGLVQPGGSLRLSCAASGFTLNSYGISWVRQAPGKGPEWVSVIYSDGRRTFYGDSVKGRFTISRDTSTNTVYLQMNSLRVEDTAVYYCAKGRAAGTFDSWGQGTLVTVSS
VL: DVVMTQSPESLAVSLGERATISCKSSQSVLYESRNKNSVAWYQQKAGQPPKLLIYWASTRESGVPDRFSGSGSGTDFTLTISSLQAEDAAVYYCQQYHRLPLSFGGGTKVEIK

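The parent was found by panning a naive human phage display library on the peptide. Designed CDR sequences, proposed from the first random library and measured here. Group labels follow the data file (Ctrl: baseline library sampled from a position-specific scoring matrix, with some repeated check sequences; En: ensemble of fine-tuned language models; GP: Gaussian process model; GPLM: also part of the Gaussian process libraries; HC: hill climbing; Gen: genetic algorithm; Gibbs: Gibbs sampling; a sequence that several methods proposed may carry one label only). The scFvs were displayed on barcoded MATa yeast, the peptide on MATalpha yeast. The frequency of each diploid, read from paired DNA barcodes, reflects how well the two displayed proteins bind. Read counts were normalised to the haploid input and turned into Kd by a linear fit to BCL2-family pairs of known affinity, for each replicate. There are six technical replicates.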

Each variant's VH is given in full. Affinities are written as log10 Kd with Kd in nM; a lower number is a better binder. Replicates are averaged; those with no signal do not enter the mean. Where no diploid with the target was found in any replicate, the entry reads "not detected": below detection, most likely a poor binder, though not proof of it. Of ten entries with the parent sequence, four were seen in most replicates (averages 0.34 to 2.37), three in one and three in none, so single entries are noisy.

VH,group,"log10 Kd (nM), mean",detected
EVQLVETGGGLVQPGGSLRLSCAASGFELNEYGISWVRQAPGKGPEWVSVIYSDGRRTFYGDSVKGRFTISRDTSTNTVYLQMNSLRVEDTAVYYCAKGRLAGTFDSWGQGTLVTVSS,GP_Gen,0.33,6 of 6
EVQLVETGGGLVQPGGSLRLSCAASGFDLEEMGVSWVRQAPGKGPEWVSVIYADGKRKAYKQKVKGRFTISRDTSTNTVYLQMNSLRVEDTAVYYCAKGQTAGSFDVWGQGTLVTVSS,En_Gibbs,0.92,6 of 6
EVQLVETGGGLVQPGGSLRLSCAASGFTLNSYGISWVRQAPGKGPEWVSVIYSDGRRTFYGDSVKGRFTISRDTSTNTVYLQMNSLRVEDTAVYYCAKGRACGTMDSWGQGTLVTVSS,Ctrl,not detected,0 of 6
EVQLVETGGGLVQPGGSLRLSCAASGFDLGEYGISWVRQAPGKGPEWVSVIYADGRRKGYSDAVKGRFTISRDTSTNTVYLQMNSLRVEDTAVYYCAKGINSINKTVWGQGTLVTVSS,En_Gibbs,not detected,0 of 6
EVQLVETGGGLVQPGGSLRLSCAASGFVLDEYGISWVRQAPGKGPEWVSVIYADGHRTVYAEDFKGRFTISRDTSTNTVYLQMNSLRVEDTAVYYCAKGQNGGNFHHWGQGTLVTVSS,En_Gibbs,not detected,0 of 6
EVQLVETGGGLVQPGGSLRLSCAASGFELSEYGISWVRQAPGKGPEWVSVIYADGHRSFVTDDVKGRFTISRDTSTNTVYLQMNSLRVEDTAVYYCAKGQNGGAFNVWGQGTLVTVSS,En_Gibbs,not detected,0 of 6
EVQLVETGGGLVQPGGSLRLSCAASGFDLNEYGISWVRQAPGKGPEWVSVIYADGKRTAYADDVKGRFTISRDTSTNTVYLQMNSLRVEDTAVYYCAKGNVAGTFDTWGQGTLVTVSS,En_Gen,-0.31,6 of 6
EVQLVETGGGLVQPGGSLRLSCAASGFTLNSYGISWVRQAPGKGPEWVSVIYSDGKRTFYGDSVKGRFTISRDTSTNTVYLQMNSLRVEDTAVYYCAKGQEAGTFDTWGQGTLVTVSS,GP_Gen,0.20,6 of 6
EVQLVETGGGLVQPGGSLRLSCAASGFTLNSYGISWVRQAPGKGPEWVSVIYSDGRRTFYLDSVKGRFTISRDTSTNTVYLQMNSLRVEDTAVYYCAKGRAHGTFDSWGQGTLVTVSS,Ctrl,not detected,0 of 6
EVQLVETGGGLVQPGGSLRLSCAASGFDIDEQGISWVRQAPGKGPEWVSVIYADGLRVAYKDRVKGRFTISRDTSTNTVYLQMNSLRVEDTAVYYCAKGAGSGVIDMWGQGTLVTVSS,En_Gibbs,not detected,0 of 6
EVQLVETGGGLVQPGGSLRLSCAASGFDLNEYGISWVRQAPGKGPEWVSVIYADGVRTAYSDSVKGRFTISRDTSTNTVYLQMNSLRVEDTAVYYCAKGNNAGTFDQWGQGTLVTVSS,En_Gen,-0.07,6 of 6
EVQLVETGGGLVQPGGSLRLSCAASGFTLNSYGISWVRQAPGKGPEWVSVIYADGKRTFYGDSVKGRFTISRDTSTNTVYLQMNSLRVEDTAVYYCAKGRAAGTFDKWGQGTLVTVSS,GP_Gibbs,0.54,6 of 6
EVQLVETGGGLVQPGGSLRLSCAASSFDLNSYGISWVRQAPGKGPEWVSVIYSDGRRTFYGDSVKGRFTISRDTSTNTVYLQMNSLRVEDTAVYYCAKGQTAGTFDSWGQGTLVTVSS,GP_Gen,1.84,6 of 6
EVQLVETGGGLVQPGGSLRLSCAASGFDVEEYGISWVRQAPGKGPEWVSVIYADGRRSQYANSVKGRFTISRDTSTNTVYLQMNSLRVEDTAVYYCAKGAIRGTFDSWGQGTLVTVSS,En_Gibbs,not detected,0 of 6
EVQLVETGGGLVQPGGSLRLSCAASGFDLNEYGISWVRQAPGKGPEWVSVIYADGKRTAYAESVKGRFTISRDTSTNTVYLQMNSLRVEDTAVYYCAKGNVAGTFDVWGQGTLVTVSS,En_Gen,-0.41,6 of 6
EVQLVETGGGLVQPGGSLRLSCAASGFDLNEYGISWVRQAPGKGPEWVSVIYADGMRTAYSDSVKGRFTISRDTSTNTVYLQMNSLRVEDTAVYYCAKGNNAGTFDMWGQGTLVTVSS,En_Gen,-0.09,6 of 6
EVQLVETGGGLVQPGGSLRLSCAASGFTLNEYGISWVRQAPGKGPEWVSVIYSDGRRTFYGDRVKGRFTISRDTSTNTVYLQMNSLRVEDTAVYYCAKGRAAVTFDTWGQGTLVTVSS,GP_HC,not detected,0 of 6
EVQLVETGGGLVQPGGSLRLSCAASGFGLNEYGISWVRQAPGKGPEWVSVIYSDGRRTFYCDSVKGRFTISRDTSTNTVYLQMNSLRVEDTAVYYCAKGRTAGTFDSWGQGTLVTVSS,GPLM_HC,0.85,6 of 6
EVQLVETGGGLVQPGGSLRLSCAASGFTLNSYGISWVRQAPGKGPEWVSVIYSDGRRTFYMDSTKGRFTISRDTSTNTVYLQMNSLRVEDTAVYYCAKGRAAGTDKSWGQGTLVTVSS,Ctrl,not detected,0 of 6
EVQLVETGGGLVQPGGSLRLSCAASGFNLNEYGISWVRQAPGKGPEWVSVIYADGIRSNYADSFKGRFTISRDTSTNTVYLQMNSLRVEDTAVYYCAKGKSNNFFIDWGQGTLVTVSS,En_Gibbs,not detected,0 of 6

The last 3 entries again:

| VH | group | log10 Kd (nM), mean | detected |
|---|---|---|---|
| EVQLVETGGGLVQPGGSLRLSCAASGFGLNEYGISWVRQAPGKGPEWVSVIYSDGRRTFYCDSVKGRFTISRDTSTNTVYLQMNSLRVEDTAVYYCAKGRTAGTFDSWGQGTLVTVSS | GPLM_HC | 0.85 | 6 of 6 |
| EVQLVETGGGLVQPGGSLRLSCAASGFTLNSYGISWVRQAPGKGPEWVSVIYSDGRRTFYMDSTKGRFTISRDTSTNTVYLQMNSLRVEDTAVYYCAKGRAAGTDKSWGQGTLVTVSS | Ctrl | not detected | 0 of 6 |
| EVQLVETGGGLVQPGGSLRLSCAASGFNLNEYGISWVRQAPGKGPEWVSVIYADGIRSNYADSFKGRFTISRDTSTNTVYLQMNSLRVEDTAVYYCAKGKSNNFFIDWGQGTLVTVSS | En_Gibbs | not detected | 0 of 6 |

The authors' rule: three or more of the six replicates give a measured affinity, fewer mean a poor binder. A sequence measured in both rounds can read differently, since the two assays cover different ranges. Background: pairings of all heavy chain designs with three empty control strains gave a value in 1% of cases (median 2.08, 5th percentile 0.84). Values in that range, when seen in few replicates, are hard to tell from nonspecific mating.